# PubChem BioAssay AID588692 (Broad Institute, 2011)
# The entries are a selection whose mix differs from that of the whole data set. Calls of active or inactive are those of the source.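 Rule for the calls: active = mean luciferase reporter signal, scaled so untreated is 0 and the glycosylation-blocking control 100, at or above a set limit in every replicate; inconclusive = mean reaches the limit but not every replicate does; inactive = mean below the limit.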
# Assay: increase of ERlucT glycosylation luciferase signal, primary screen, N-linked glycosylation inhibitor project, D54 ERlucT cells, luminescence, set 2 (AID 588692);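 note: luciferase carries N-glycosylation sites so blocking glycosylation raises the light; 0% = median of neutral control wells and 100% = median of 100 nM tunicamycin wells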
# Conditions: 24 h, at 12.5 µM, stronger effect = higher value, percent of 100 nM tunicamycin response
row,SMILES,reporter increase
1,CCN(N=Nc1nonc1N)c1nonc1N,inactive: 0.884%
2,Nc1cccc2ccc([As](=O)(O)O)cc12,inactive: 1.36%
3,Cc1ccc(NP(=O)(Oc2ccccc2F)Oc2ccccc2F)nc1,inactive: 1.85%
4,CN(C(=O)Cc1ccc(Cl)c(Cl)c1)[C@H]1CCCC[C@@H]1N1CCCC1,inactive: -2.78%
5,CCOP(=O)(Nc1ccccc1)OCC,inactive: -1.35%
6,Cc1cc(SC(NC(=O)c2ccc(F)cc2)C(Cl)(Cl)Cl)ncn1 (stereo not given),inactive: 0.608%
7,CCCC1OP(N)(=O)OCC1CC (stereo not given),inactive: 0.58%
8,O=C(O)c1ccccc1[As](=O)(O)O,inactive: -0.137%
9,CC(=O)Nc1ccc([As](=O)(O)O)cc1,inactive: 1.84%
10,CN(C)P(=O)(N(C)C)n1c(Nc2ccccc2)nnc1-c1ccccc1,inactive: 2.37%
11,O=P(Nc1nc2ccc(Cl)cc2s1)(c1ccccc1)c1ccccc1,inactive: 1.71%
12,O=[N+]([O-])C1C(O)C(O)C([N+](=O)[O-])C(O)C1O (stereo not given),inactive: 0.224%
13,CC(C)CC(=O)NC(Sc1ccc(Cl)cc1)C(Cl)(Cl)Cl (stereo not given),inactive: -0.923%
14,Nc1cc(N)c2nonc2c1[N+](=O)[O-],inactive: -0.208%
15,O=C(NC(Sc1ccncn1)C(Cl)(Cl)Cl)c1ccccc1 (stereo not given),inactive: 1.7%
16,Oc1ccccc1CNc1ccccn1,inactive: -0.367%
17,Cc1ccc(OP(=O)(Nc2nccs2)Oc2ccc(C)cc2)cc1,inactive: 0.412%
18,COc1ccccc1OP(=O)(Nc1ccc(C)cn1)Oc1ccccc1OC,inactive: -2.26%
19,Clc1ccc(Cl)c(NC2=NCC(CBr)S2)c1 (stereo not given),inactive: 1.48%
20,CN1CCCC(OC(=O)C(c2ccccc2)c2ccccc2)C1 (stereo not given),inactive: -1.15%
21,NC(=O)c1cc([N+](=O)[O-])cc([N+](=O)[O-])c1N,inactive: -0.624%
22,Cc1ccc(N/C(=N/P(=O)(N2CCOCC2)N2CCOCC2)N2CCOCC2)cc1,inactive: 1.48%

row,SMILES,reporter increase
1,CN(C(=O)Cc1ccc(Cl)c(Cl)c1)[C@H]1CCCC[C@H]1N1CCCC1,inactive: -0.272%
2,CN(C)C(=O)OCCc1n(C)cc[n+]1C,inactive: 7.35%
3,CC(C)=N/N=C(\N)N[N+](=O)[O-],inactive: 1.31%
4,CC(C)c1nc(Nc2ccccc2)n(P(=O)(N(C)C)N(C)C)n1,inactive: 0.162%
5,c1cc(-c2nn[nH]n2)ccc1-c1nn[nH]n1,inactive: 2.38%
6,CC1CCN(C(=O)Oc2c(Cl)cc(Cl)c3cccnc23)CC1,inactive: 0.945%
7,C[N+]1=C2C=CC=CC=C2SC12C([N+](=O)[O-])=CC([N+](=O)[O-])=C[C-]2[N+](=O)[O-] (stereo not given),inactive: -16%
8,Nc1ccc([As](=O)(O)c2ccc(N)cc2)cc1,inactive: 0.169%
9,CCN(/C(=N/P(=O)(N1CCOCC1)N1CCOCC1)N1CCOCC1)c1ccc(OC)cc1,inactive: 0.793%
10,O=[N+]([O-])c1cccc2n[nH]nc12,inactive: 1.43%
11,CC(=O)N1C2C3N(C(C)=O)C1C1N(C(C)=O)C(C(N1C(C)=O)N3C(C)=O)N2C(C)=O,inactive: 1.8%
12,CCc1nc2c(n1)c1c(non1O)c1c2no[n+]1[O-],inactive: 2.15%
13,O=[N+]([O-])c1cc([N+](=O)[O-])c(CCNc2ccccc2)c([N+](=O)[O-])c1,inactive: 3.4%
14,Cc1ccc(NP(=O)(Oc2ccccc2)Oc2ccccc2)nc1,inactive: -0.527%
15,COc1ccc(C2=NCC(CBr)S2)cc1 (stereo not given),inactive: 2.94%
16,O=[N+]([O-])c1cccc(NC2=NCC(CBr)S2)c1 (stereo not given),inactive: 3.9%
17,COC(=O)C1(C)COP(=O)(Nc2ccccc2)OC1 (stereo not given),inactive: 0.181%
18,O=C(O)CNc1ccc([As](=O)(O)O)cc1,inactive: 2.46%
19,CC(C)(C)C(=O)NC(Sc1ccncn1)C(Cl)(Cl)Cl (stereo not given),inactive: 3.37%
20,O=[N+]([O-])c1ncn(CCn2ncnc2[N+](=O)[O-])n1,inactive: 3.23%
21,O=C(Nc1cc([As](=O)(O)O)ccc1O)c1ccccc1,inactive: 3.02%
22,O=P1(N(CCCl)CCCl)OCCCS1 (stereo not given),inactive: 1.13%

row,SMILES,reporter increase
1,Nc1ccc([As](=O)(O)c2ccc([N+](=O)[O-])cc2)cc1,inactive: -0.49%
2,C(Cc1nn[nH]n1)Cc1nn[nH]n1,inactive: 4.63%
3,O=C(OC1CN2CCC1CC2)c1cccc(Cl)c1 (stereo not given),inactive: -1.19%
4,O=[N+]([O-])c1ccc(O)c(/C=N/Nc2ccc([N+](=O)[O-])cc2[N+](=O)[O-])c1,inactive: -12.4%
5,CC(=O)NC(SC(=S)N(C)C)C(Cl)(Cl)Cl (stereo not given),inactive: 7.65%
6,O=[N+]([O-])c1ncn(CCn2cnc([N+](=O)[O-])n2)n1,inactive: 3.02%
7,O=[As](O)(c1ccccc1)c1ccc(O)cc1,inactive: 1.79%
8,C[C@H]1OP(=O)(Oc2ccccc2)[C@H](O)[C@H](O)[C@H]1N=[N+]=[N-] (stereo not given in full),inactive: -0.461%
9,O=P(Nc1nc2ccccc2s1)(c1ccccc1)c1ccccc1,inactive: -2.53%
10,Nc1ccc(CCCCOc2ccccc2)cc1,inactive: 0.0225%
11,COc1ccc(N)c([N+](=O)[O-])c1[N+](=O)[O-],inactive: -0.257%
12,O=P(Nc1ccccn1)(c1ccc(Br)cc1)c1ccc(Br)cc1,inactive: -0.374%
13,CN(C)C1(CNC(=O)c2ccc(Cl)c(S(N)(=O)=O)c2)CCCCC1,inactive: 3.15%
14,c1nnnn1CCn1cnnn1,inactive: 0.257%
15,CC(C)C(=O)NC(Sc1ccccc1)C(Cl)(Cl)Cl (stereo not given),inactive: 0.752%
16,O=P(Nc1nccs1)(c1ccccc1)c1ccccc1,inactive: -2.54%
17,CC(=O)Nc1ccc(Oc2c([N+](=O)[O-])cc([N+](=O)[O-])cc2[N+](=O)[O-])cc1,inactive: -1.23%
18,CC(=O)Nc1ccc([As](=O)(O)O)c(O)c1,inactive: 2.58%
19,COC(=O)C1(C)COP(=O)(NCc2ccccc2)OC1 (stereo not given),inactive: 1.68%
20,N#C/C(=C\c1ccc(N(CCBr)CCBr)cc1)C(N)=O,inactive: 0.761%
21,CC(=O)c1ccc(N2CC2c2ccncc2)cc1 (stereo not given),inactive: -0.811%
